Results as given in US11110158B2, “Prostate-associated antigens and vaccine-based immunotherapy regimens” (Pfizer Inc., priority 2012, dated 2021).

Tested on: PC3
Test: Antibody-dependent cell-mediated cytotoxicity, chromium 51 release, human PBMC effectors
Format: cell-based
Conditions: target PC3 (PSMA negative); plasma 1:50 or control mAb
Description: An Indian rhesus macaque was immunized with a nucleic acid encoding a human PSMA modified antigen delivered by adenovirus (1e11 V.P. injected intramuscularly) followed by 2 PMED immunizations (8 actuations/immunization, 4 actuations per each right and left side of the lower abdomen) with 8 and 6 week intervals respectively. The animal also received intradermal injections of 3 mg of CpG (PF-03512676) in proximity to each inguinal draining lymph node at the time of the second PMED immunization. The antibody dependent cell-mediated cytotoxicity was determined from the plasma collected from the blood before any immunizations (pre-immune plasma) and 8 days after the last PMED immunization (immune plasma).
Antibody-dependent cell-mediated cytotoxicity was determined using the standard chromium 51 release assay. Human prostate cancer cell lines LNCaP and PC3 were used as target cells. Freshly isolated human PBMC cells were used as effector cells. […] Specific lysis was calculated as follows: Percent release=(ER-SR)/(MR-SR)×100 where ER (effectors+target cells release) was experimental release, SR (target cells alone incubated with media) was spontaneous release, and MR (target cells alone incubated with 2N HCl) was maximum release. Percent specific lysis was calculated by subtracting irrelevant target (PC3) release from antigen specific target (LNCaP) release.

Herceptin: monoclonal antibody against HER-2, positive control
Percent specific lysis at E:T of 30:1: 8.04%
